Paper PMC7126328 (Bioorganic & Medicinal Chemistry, 2013)

Assays:
E. coli/pET36b-gfp = conditions: 150 μM
E. coli/pRAC-gfp = conditions: 150 μM

CC[N+](C)(CC)CC/N=C1\C[C@H]2CC[C@]1(C)C2(C)C [Compound 4a, N,N-Diethyl-N-methyl-2-((E)-((1R,4R)-1,7,7-trimethylbicyclo[2.2.1]heptan-2-ylidene)amino)ethanaminium iodide]
Toxic and mutagenic effects on indicator cells E. coli/pET36b-gfp (in words) (E. coli/pET36b-gfp): neither toxic nor mutagenic effects
Toxic and mutagenic effects on indicator cells E. coli/pRAC-gfp (in words) (E. coli/pRAC-gfp): neither toxic nor mutagenic effects
